Measurements taken from publication PMC12126155.
Like-named read-outs stand apart in the source and are kept apart here.

Tests used:
Assay in all cases: fluorescence polarisation
[1] = molecular target: canonical nucleosome (X. laevis histone octamer on Widom 601 DNA) (X. laevis)
[2] = molecular target: canonical nucleosome (X. laevis histone octamer on Widom 601 DNA) (X. laevis); remark: listed apart in the source
[3] = molecular target: canonical nucleosome (X. laevis histone octamer on Widom 601 DNA) (X. laevis); remark: listed apart in the source

- fold reduction in affinity against wild-type CHD1 [1]: 1.7 fold
- fold reduction in affinity against wild-type CHD1 [2]: 1.8 fold
- fold reduction in affinity against wild-type CHD1 [3]: 1.2 fold
Substance: CHD1 Arg1072Ala/Arg1074Ala mutant (residues 1-1327) (from UniProt O14646 1-1327) (enzyme)
